Apoferritin bind: binds horse apoferritin like a general anesthetic. apoferritin/1-aminoanthracene competitive binding, fluorescence. Potency, µM (series often up to 77.5 µM), inactives show at the highest dose activity change, negative = displacement, usual class: inhibitors. 350,000 compounds, 0.074% hits. AID 485281. P02791; further: potency means the concentration at half of the fitted maximal effect; on the % scale 0 is the no-effect control and ±100 the full control effect; nearly all actives have a fitted effect of over 20% in size
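In PBS, apoferritin at 10 uM is loaded with 1-AMA from a 50% saturated solution. After 10 min of compound exposure at ambient temperature, reduced 535 nm fluorescence indicates probe displacement.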
TrxR1 substrate: rat thioredoxin reductase 1 substrate activity. purified TrxR1 substrate turnover, NADPH consumption readout. Potency, µM (top dose mostly 114 µM), for inactives: top-dose activity change, negative = substrate turnover. 390,000 compounds, 0.01% hits; further: potency means the concentration at half of the fitted maximal effect; on the % scale 0 is the no-effect control and ±100 the full control effect; nearly all actives have a fitted effect of over 50% in size
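Rat TrxR1, dispensed at 90 nM, was prereduced with 400 uM NADPH (final) for 5 min at ~22 deg C, then incubated with compound 15 min before 400 uM selenite. A first-read NADPH fluorescence drop versus no-compound background flagged substrates.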
TrxR1 inh: blocks rat thioredoxin reductase 1; 390,000 compounds, 1% hits; O89049; recombinant rTrxR1, NADPH fluorescence consumption, selenite substrate; Potency, µM (series often up to 114 µM), for the others: top-dose activity change, negative = inhibition, most hits filed as inhibitors; AID 588453; further: potency means the concentration at half of the fitted maximal effect; on the % scale 0 is the no-effect control and ±100 the full control effect; nearly all actives have a fitted effect of over 65% in size
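Rat TrxR1 (90 nM in the dispensed reagent) was pre-reduced with 400 uM NADPH for 5 min at room temperature, then incubated with compound for 15 min. After 400 uM selenite was added, NADPH fluorescence (Ex 340/Em 450 nm) was followed for 8 min.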
miR-21 reporter: miR-21 reporter, rising signal | AID 2288 | HeLa miR-21 FLuc reporter, luciferase, 48 h | 340,000 tested, under 10 active | Potency, µM (doses to about 38.3 µM), for inactives: at the top dose reporter change, positive = more light; active = well fitted rising curve with a large enough effect; inconclusive = small, poorly fitted or top-dose-only effect; inactive = no such curve, though single readings can be large or run the other way;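 note: % of control where 0% means no effect; miR-21 action dims this reporter so a rising signal means less miR-21 action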
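Compounds were titrated across several concentrations (up to approximately 40 uM) and incubated 48 hours with HeLa miR-21-FLuc reporter cells (miR-21 target sequence downstream of FLuc, endogenous miR-21). Readout was firefly luciferase luminescence after lytic detection reagent.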
ClpP mod: qHTS Assay for Activators of ClpP; 340,000 compounds, 1.9% hits; ATP-dependent Clp protease proteolytic subunit (Bacillus subtilis (strain 168)), P80244; Potency, µM (highest dose often 57.5 µM), inactives show top-dose activity change, negative = active; purified B. subtilis ClpP, FRET peptide cleavage, 20 min; active means well fitted falling curve with a large enough effect; inconclusive means small, poorly fitted or top-dose-only effect; inactive means no such curve, though single readings can be large or run the other way; further: potency means the concentration at half of the fitted maximal effect; the source files actives as falling curves though it sought activators and does not explain the sign; nearly all actives have a fitted effect of over 65% in size
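FRET quenching reversal measured ClpP activation: 10 microg/mL B. subtilis ClpP at pH 8 with the FRET-FV decapeptide, read at 430 nm after 320 nm excitation. The 20-min minus 0-min signal was scaled between DMSO/no-enzyme wells and ADEP (5.8 microM final).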
* hit, by the source's call; ? = inconclusive; · = no result given; ! = not confirmed by another sample; [ ] = another dose, or the depositor's remark. Hits are enriched below; roughly 2.5% of the tested compounds scored in any of these assays. Unless noted, the call rests on the fitted dose curve; in most records, active means well fitted curve in the direction sought with a large enough effect; inconclusive means small, poorly fitted or top-dose-only effect, or another doubt; inactive means no such curve, though single readings can be large; an effect the other way counts as inactive or inconclusive.

Amino acid sequences for entries named in this document (tags omitted).
ATP-dependent Clp protease proteolytic subunit (Bacillus subtilis (strain 168)), P80244, UniProt P80244, whole entry, looked up: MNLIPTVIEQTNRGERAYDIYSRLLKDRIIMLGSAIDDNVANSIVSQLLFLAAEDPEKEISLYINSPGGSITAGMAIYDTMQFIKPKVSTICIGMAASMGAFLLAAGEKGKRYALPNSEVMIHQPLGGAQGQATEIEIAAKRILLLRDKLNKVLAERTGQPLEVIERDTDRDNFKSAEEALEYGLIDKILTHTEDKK

Field names: A = Apoferritin bind; B = TrxR1 substrate; C = TrxR1 inh; D = miR-21 reporter; E = ClpP mod
> CCCN(Cc1cccs1)C(=O)Nc1cc(Cl)ccc1C
  A: -6% | B: 0% | C: 9% | D: -12% | E: 0%
> CCCNC(=O)c1ccc2nc(-c3ccccc3)c(-c3ccccc3)nc2c1
  A: -4% | B: 9%[11.4 µM] | C: ? | D: 17% | E: 28µM*
> CCN(CC)C(=O)c1ccc2nc(-c3ccccc3)c(-c3ccccc3)nc2c1
  A: 3% | B: 80% | C: -17% | D: 2% | E: 25µM*
> CCN(CC)C(=O)c1ccc2nc3ccccc3nc2c1
  A: 1% | B: -11% | C: -8% | D: -52% | E: 0%
> CCCn1c2ccccc2c2cnn(CC(=O)NCCc3cc(OC)ccc3OC)c(=O)c21
  A: -5% | B: 2% | C: 10% | D: -5% | E: ?
> c1ccc(N2CC3COc4ccccc4C3=N2)cc1 (configuration not stated)
  A: · | B: 74%[57.1 µM] | C: -2%[11.4 µM] | D: · | E: 25µM*
> CCCN(CCC)C(=O)C1CCCN(c2ncnc3onc(-c4ccc(F)cc4)c23)C1 (configuration not stated)
  A: -11% | B: -4% | C: 6% | D: -5% | E: 0%
> C=C1NN(C(C)C(=O)O)C(=O)N1c1ccc(OCc2ccccc2)cc1 (configuration not stated)
  A: · | B: 7% | C: 32% | D: · | E: -1%
> Cc1ccc(-n2nnnc2CCl)cc1
  A: -4% | B: 9%[57.1 µM] | C: 14µM* | D: 18% | E: -1%
> Cc1occc1-c1nnc(SCC(=O)c2cc3ccccc3oc2=O)o1
  A: -5% | B: -5% | C: -26% | D: -9% | E: 28µM*
> CCc1ccccc1NC(=O)Nc1cc(C(=O)NCc2cccc(F)c2)ccc1N1CCCC1
  A: 37% | B: 6%[57.1 µM] | C: 14%[57.1 µM] | D: -3% | E: -1%
> O=C(CCc1nc2cccnc2n1Cc1cccs1)Nc1cccc(Cl)c1
  A: -8% | B: -13% | C: -19% | D: 8% | E: -4%
> COc1cc(-c2nnc(CSc3nnc(N)s3)o2)cc(OC)c1OC
  A: -12% | B: -12% | C: -23% | D: -3% | E: -1%
> COc1cc(-c2nnc(CSc3nnc(Nc4ccc(Oc5ccccc5)cc4)s3)o2)cc(OC)c1OC
  A: -8% | B: -11% | C: -5% | D: 0% | E: 25µM*
> CNc1ccc(/C=C2\C=Cc3ccccc32)cc1Cl
  A: · | B: -10% | C: -24% | D: · | E: -3%
> C=CCc1cccc(C=Nc2ccc(Br)cc2)c1O
  A: -5% | B: -2% | C: 13% | D: -3% | E: 1%
> C=CCc1cccc(/C=N/c2ncccc2O)c1O
  A: -8% | B: 11% | C: 14µM* | D: -4% | E: -11%
> COc1ccc(C2C(C(=O)Nc3ccccc3)=C(C)Nc3c(C(=O)Nc4ccccc4)cnn32)cc1 (configuration not stated)
  A: -11% | B: -3% | C: 6% | D: 26% | E: ?
> COc1ccc(C2CC(=O)C(CS(=O)(=O)c3ccccc3)C(=O)C2)cc1 (configuration not stated)
  A: 32µM* | B: 4%[57.1 µM] | C: -73% | D: -1% | E: ·
> O=C(Cn1cc(SCc2ccc(F)cc2)c2ccccc21)N1CCCCC1
  A: 7% | B: -4% | C: 17% | D: -15% | E: 0%
> CCOc1ccc(-c2nc(CSCC(=O)NCCN3CCOCC3)c(C)o2)cc1
  A: -4% | B: 3% | C: -20% | D: 17% | E: 32µM*
> COc1ccc(-c2nc(CSCC(=O)NCCc3ccccc3)c(C)o2)cc1
  A: 0% | B: 7% | C: -9% | D: 27% | E: 32µM*
> CCOc1ccc(-c2nnc(SCC(=O)NCCC(C)C)nc2-c2ccc(OCC)c(OC)c2)cc1OC
  A: -5% | B: -5%[57.1 µM] | C: 8%[57.1 µM] | D: 5% | E: 16µM*
> COc1ccc(-c2nc(CSCC(=O)NCCC(C)C)c(C)o2)cc1OC
  A: -4% | B: 20% | C: -3% | D: -2% | E: 28µM*
> Cc1ccc(Nc2c(-c3ccco3)nc3ccccn23)cc1
  A: 1% | B: 150% | C: -11% | D: -40% | E: 25µM*
> c1coc(-c2nc3ccccn3c2Nc2ccc3c(c2)OCCO3)c1
  A: 1% | B: 32% | C: 9% | D: -53% | E: 4%
> Fc1ccc(Nc2c(-c3ccco3)nc3ccccn23)cc1
  A: 35% | B: 226% | C: ? | D: -16% | E: 28µM*!
> c1ccc(Nc2c(-c3ccco3)nc3ccccn23)cc1
  A: 41% | B: 253% | C: -1% | D: -23% | E: 25µM*
> COc1ccc(Nc2c(-c3ccco3)nc3ccc(C)cn23)cc1
  A: 2% | B: 6% | C: -9% | D: -29% | E: -27%

Compound profiles, from the list above:
Record of C=CCc1cccc(C=Nc2ccc(Br)cc2)c1O → Apoferritin bind = -5%; TrxR1 substrate = -2%; TrxR1 inh = 13%; miR-21 reporter = -3%; ClpP mod = 1%
Record of COc1ccc(Nc2c(-c3ccco3)nc3ccc(C)cn23)cc1 → Apoferritin bind = 2%; TrxR1 substrate = 6%; TrxR1 inh = -9%; miR-21 reporter = -29%; ClpP mod = -27%
